# Screens from PubChem.
# Vif inh – HIV Vif self-association inhibitors, primary screen, imaging, HEK293T, single point; HEK293T cells, Vif self-association by quenched fluorescence, 24 h; inhibition, % at 7.49 µM; actives 0.35% (n = 340,000); in the data active means inhibition above about 50%, passing the limit was not always enough
# PglD DTNB – C. jejuni PglD acetyltransferase inhibitors, primary screen, biochemical, DTNB colorimetric, single point. AID 602405, 2012. purified PglD enzyme, DTNB colorimetric CoA detection. inhibition, % at 12.5 µM. actives 0.098% (n = 360,000). UDP-N-acetylbacillosamine N-acetyltransferase PglD (Campylobacter jejuni); in the data active means inhibition above about 16%, passing the limit was not always enough
# UUG fidelity – modulators of start codon recognition fidelity in yeast; activity score, % at 18.7 µM; actives 0.13% (n = 350,000); S. cerevisiae UUG-firefly luciferase reporter, luminescence/redox ratio;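 active = replicate mean at a twofold rise or more, about +100% in these data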;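 note: firefly luciferase made from a UUG start codon reports start codon fidelity; reporter light over untreated wells divided by growth signal over untreated wells; some hits fall short of that in this replicate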
# ARNT TACC3 PPI – disruptors of ARNT/TACC3 protein interaction, primary screen, biochemical, AlphaScreen, single concentration; Transforming acidic coiled-coil-containing protein 3 (Homo sapiens), Q9Y6A5; AID 623870, 2012; AlphaScreen His-ARNT PAS-B/GST-TACC3 binding, luminescence; TACC3 fragment carries E629A point mutation; actives 0.66% (n = 390,000); inhibition, % at 9.99 µM;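 active means mean inhibition of replicates at least 50% and at least half of replicates each reaching 50%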
# CAL PDZ FP-1 – untagged CAL PDZ binding inhibitors, primary screen, biochemical, fluorescence polarization, HTS; Golgi-associated PDZ and coiled-coil motif-containing protein (Homo sapiens), Q9HD26; purified CAL PDZ, TMR-peptide fluorescence polarization, 1 h; inhibition, % at 24.9 µM; actives 0.92% (n = 300,000);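 active means mean inhibition of at least 30% with at least half of replicates also reaching 30%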
# CAL PDZ FP-2 – CAL PDZ peptide-binding inhibitors, primary screen, biochemical, fluorescence polarization, Cer-tagged CAL PDZ, HTS | actives 0.02% (n = 330,000) | purified CAL PDZ, TMR-peptide fluorescence polarization, 1 h | inhibition, % at 20 µM | Golgi-associated PDZ and coiled-coil motif-containing protein (Homo sapiens), Q9HD26;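 active means highest replicate inhibition of at least 40%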
#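 Material – purified CerCALP PDZ construct · Detection – FP readout, S and P plane fluorescence · Measure – percent inhibition from loss of millipolarization · Controls – unlabelled peptide for full inhibition, DMSO wells as neutral · Probe or stimulus – TMR-labelled reporter peptide T*-PRC34 bound in PDZ groove · Times – 1 h at RT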
# Numbers stand for hits; n = inactive; x = no result. The list is not random: actives were taken first. Their share in the collection is about 1.6%.
SMILES,Vif inh,PglD DTNB,UUG fidelity,ARNT TACC3 PPI,CAL PDZ FP-1,CAL PDZ FP-2
CCCN1C[C@@H](C)[C@H](OC)CN(C)C(=O)c2cc(NS(=O)(=O)CC)ccc2OC[C@@H]1C,x,n,n,n,x,x
Cc1ccccc1S(=O)(=O)NCC[C@@H]1CC[C@@H](NS(=O)(=O)c2ccccc2C)[C@H](CO)O1,x,n,x,x,x,x
C[C@H]1CN([C@@H](C)CO)C(=O)Cc2cc(NS(=O)(=O)c3ccccc3)ccc2O[C@H]1CN(C)Cc1ccccc1,x,n,n,n,x,x
COc1cc2c(cc1OC)CN(C(=S)Nc1ccccc1)CC2,n,n,n,n,n,n
COc1cc2c(cc1OC)CN(C(=S)Nc1ccccc1Cl)CC2,n,x,x,n,68,x
Cc1[nH]c2ccccc2c1C(=O)C(=O)NCCOc1ccccc1,n,x,x,n,46,n
C[C@@H]1CCCCO[C@@H](CN(C)Cc2ccccc2)[C@H](C)CN([C@@H](C)CO)C(=O)c2cc(NC(=O)Nc3ccc4c(c3)OCO4)ccc2O1,x,n,n,n,x,x
COC(=O)CNC(=O)CN1C(=O)NC2(CCCc3ccccc32)C1=O (stereo not drawn),n,n,n,n,39,n
COc1ccc(OC)c(NC(=O)CN2C(=O)NC3(CCOc4ccccc43)C2=O)c1 (stereo not drawn),n,n,n,n,38,x
COc1cccc(NC(=O)CN2C(=O)NC3(CCc4ccccc43)C2=O)c1 (stereo not drawn),n,n,n,n,73,n
CCNC(=O)C[C@@H]1CC[C@H]2[C@@H](COC[C@H](O)CN2Cc2ccncc2)O1,x,n,n,n,x,x
COc1ccc(C)cc1NC(=O)C1CCN(C(=O)c2ccco2)CC1,54,n,n,n,x,n
COc1ccc(NC(=O)C2CCN(C(=O)c3ccco3)CC2)c(OC)c1,n,n,n,x,n,n
CN(C)C=C1C(=O)c2ccccc2C1=O,n,n,n,n,x,n
CN(C)/C=C1\C(=O)NN=C1c1ccccc1,n,n,n,28,n,n
NC(=O)/C(=C\c1ccncc1)c1cccc2ccccc12,n,n,n,n,74,n
CCCCNC(=S)N1CCN(c2ccccc2Cl)CC1,n,x,x,n,75,n
CCCNC(=O)Nc1ccc2c(c1)C(=O)N(C)C[C@H](OC)[C@@H](C)CN(CCC)[C@H](C)CO2,x,n,n,n,x,x
C[C@@H]1CCCCO[C@@H](CN(C)S(=O)(=O)c2cccs2)[C@H](C)CN([C@H](C)CO)C(=O)c2cc(NC(=O)NC3CCCCC3)ccc2O1,x,n,n,n,x,x
N#CCCN(C(=O)COC(=O)Cc1ccc(Br)cc1)c1ccccc1,n,x,x,n,n,n
N#CCCN(C(=O)COC(=O)COc1ccccc1Cc1ccccc1)c1ccccc1,n,n,n,n,44,n
Cc1noc(C)c1C(=O)N(C)C[C@H]1OCc2ccccc2-c2c(n(C)c3ccccc23)C(=O)N([C@H](C)CO)C[C@H]1C,x,n,x,n,x,x
Cc1cccc(NC(=O)Cn2cnc3c(oc4ccccc43)c2=O)c1C,n,n,n,n,n,62
Cc1ccccc1NC(=O)Cn1cnc2c(oc3ccccc32)c1=O,n,n,n,n,n,n
C[C@H]1CN([C@@H](C)CO)C(=O)Cc2cc(N(C)C)ccc2O[C@@H]1CN(C)S(=O)(=O)c1ccccc1,x,n,x,n,x,x
CCOC(=O)C1=NNC(C(=O)c2ccccc2)C1c1ccc(C)cc1 (stereo not drawn),n,x,x,n,59,n
COc1ccc(CN(CC(=O)NC2CCCC2)C(=O)CN2C(=O)COc3ccccc32)cc1,54,n,n,n,n,n
O=C(CN(Cc1ccc(Cl)cc1)C(=O)CN1C(=O)COc2ccccc21)NC1CCCC1,n,n,n,n,x,n
